Giardia killer = Giardia lamblia killing; actives 0.15% (n = 340,000); activity change, % at 7.66 µM, hits read low; Giardia lamblia trophozoite viability; in the data active = activity change below about -80%; inconclusive = between about -30% and that limit;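 note: parasites exposed to compound for two days anaerobically before the ATP read; % is set by controls: 0 for no effect and ±100 for the full control effect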
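Viability, read as ATP luminescence: trophozoites at 100 cells/well, compound added, 48 hrs anaerobic at 37 deg C, then 15-30 min room-temperature development before reading.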
PINK1 modulator = changes PINK1 expression; AID 624263; actives 0.2% (n = 410,000); Potency, µM (highest dose often 76.6 µM), for the others: at the top dose activation (PINK1 increase), most hits filed as activators; PINK1 immunofluorescence, high-content cytometry, 24 h; active = well fitted activation curve with a large enough effect; inconclusive = small, poorly fitted or top-dose-only effect; cell line not stated here; note: potency is the fitted concentration of half-maximal effect; % of control where 0% means no effect; nearly all actives have a fitted effect of over 65% in size
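Compound titrations (5 concentrations, 24 h) on a stable cell line; DMSO and CCCP controls. Endpoint: fixed-cell PINK1 immunofluorescence with mitochondrial, cell and nuclear markers, scanned by microplate cytometer.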
miR-21 reporter = miR-21 reporter, rising signal. 340,000 tested, under 10 active. Potency, µM (highest dose often 38.3 µM), for the others: at the highest dose reporter change, positive = more light. HeLa miR-21 FLuc reporter, luciferase, 48 h. AID 2288; active = well fitted rising curve with a large enough effect; inconclusive = small, poorly fitted or top-dose-only effect; inactive = no such curve, though single readings can be large or run the other way;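 further: % of control where 0% means no effect; miR-21 action dims this reporter so a rising signal means less miR-21 action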
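HeLa miR-21-FLuc reporter line, endogenous miR-21; 2000 cells/well in DMEM/10% FBS; compound titration up to ~40uM final, 48 h, 37 degree Celsius; luciferase detection reagent, 15 min lysis, CCD luminescence.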
12-LOX inh = ALOX12 (human) lipoxygenase inhibition | P18054 | purified 12hLO, xylenol orange hydroperoxide absorbance | Potency, µM (highest dose often 108 µM), without a hit: at the top dose activity change, negative = inhibition, actives largely listed as inhibitors | actives 1.1% (n = 580,000); note: potency is the fitted concentration of half-maximal effect; % is set by controls: 0 for no effect and ±100 for the full control effect
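Purified human 12hLO at 150 nM in 25 mM Hepes, 0.01% Triton X-100, pH 7.0, preincubated 15 min at room temperature with compound. Reaction started with 40 uM arachidonic acid, 30 min at room temperature. Hydroperoxide measured by Fe-xylenol orange, 573/405 nm absorbance ratio.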
PTHR1 agonist = PTHR1 (human) receptor agonism | HEK293 GP2 PTHR1 cells, GloSensor cAMP luminescence, 1 h | Potency, µM (highest dose often 115 µM), without a hit: at the top dose activation, most hits filed as activators | actives 0.075% (n = 410,000); note: potency is the fitted concentration of half-maximal effect; nearly all actives have a fitted effect of over 55% in size
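HEK-293-derived GP2 cells expressing PTHR1 and a GloSensor cAMP reporter, 3,000/well, plated overnight, given luciferin plus IBMX (each 0.5 mM as added) for 1 h at 37 °C, then compound for 1 h at 37 °C. Luminescence was read after 15 min at room temperature.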
ERG-DNA inh = ERG Ets/DNA interaction inhibition | fluorescence polarization, His-ERG Ets domain / labelled DNA | P11308 | Potency, µM (highest dose often 76.9 µM), for inactives: top-dose FP activity, negative = inhibition, actives largely listed as inhibitors | AID 624246 | actives 0.028% (n = 370,000); active = well fitted inhibition curve with a large enough effect in the polarisation, with a control signal flat; inconclusive = small, poorly fitted or top-dose-only effect, or effect the other way, or a change in a side signal; inactive = no such curve, though single readings can be large or run the other way; the % refers to the polarisation;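 note: polarization taken with two DNA probes labelled with fluorescein and Texas red; potency is the fitted concentration of half-maximal effect; % of control where 0% means no effect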
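His-tagged ERG Ets domain (1 uM in the protein solution; 300mM KCl, 50mM Tris-HCl, 1mM EDTA, 1mM DTT, pH 7.5) received compound, then a probe mix of 5 nM fluorescein-DNA and 100nM Texas-615-DNA. Fluorescence polarization was read for both dyes.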
* marks the source's active call; other numbers are inactive results; i = inactive; ? = inconclusive; · = no result given; [ ] = another dose, or the depositor's remark. Rows were chosen to be rich in hits. Some 1.3% of all compounds tested hit in one or more screens of this group. Unless noted, calls come from the whole dose curve; as a rule, active = well fitted curve in the direction sought with a large enough effect; inconclusive = small, poorly fitted or top-dose-only effect, or another doubt; inactive = no such curve, though single readings can be large; an effect the other way counts as inactive or inconclusive.

nr	compound	Giardia killer	PINK1 modulator	miR-21 reporter
1	O=C(Nc1cc(S(=O)(=O)N2CCOCC2)ccc1N1CCCC1)c1ccc(F)cc1	7	-1%	·
2	COc1ccc(/C=C2\SC(=S)N(CCCC(=O)N3CCN(C)CC3)C2=O)cc1OC	-5	-2%	·
3	COC(=O)C1CN(C(=O)COc2ccc(Cl)c(C)c2)c2ccccc2O1 (stereo not given)	-23	3%	0%
4	CCN1CCN(c2ccc(S(=O)(=O)N3CCCCC3)cc2NC(=O)C(C)Oc2ccc(F)cc2)CC1 (stereo not given)	10	3%	·
5	CC(Oc1ccc(F)cc1)C(=O)Nc1cc(S(=O)(=O)N2CCCCC2)ccc1N1CCOCC1 (stereo not given)	33	4%	·
6	CCCCc1cc(C[C@H]2CNCC[C@H]2CC(=O)NCc2cccnc2)no1	·	·	·
7	CC(C)(C)c1ccc(-c2cc(C[C@H]3CNCC[C@H]3CC(=O)NCc3cccnc3)no2)cc1	·	·	·
8	COC(=O)c1ccc(OC(=O)/C=C/c2ccc(Br)o2)cc1	·	·	·
9	O=C(OCC(=O)N1CCCC1=O)c1ncc(Cl)c(Cl)c1Cl	-16	-1%	·
10	Cc1cc(Nc2cc(Cl)ccc2C)n2nc(-c3ccccc3)nc2n1	·	5%	-4%

nr	12-LOX inh	PTHR1 agonist	ERG-DNA inh
1	40µM*	-22%	-3%
2	-17%	i	-15%
3	47%	i	9%
4	45µM*	-1%	-4%
5	?	-16%	4%
6	-18%[176 µM]	·	·
7	28µM*	·	·
8	11µM*	·	·
9	?	i	3%
10	-9%	-9%	13%

Remaining list, next part:
nr	compound	Giardia killer	PINK1 modulator	miR-21 reporter
11	Cc1ccc(N2CC(C(=O)Nc3ncc([N+](=O)[O-])s3)CC2=O)cc1 (stereo not given)	-85*	10%	-1%
12	S=c1[nH]nc(-c2ccco2)n1/N=C/C=C/c1ccco1	-6	4%	-1%
13	S=c1[nH]nc(-c2cc(-c3ccccc3)n[nH]2)n1/N=C/c1ccc(Br)s1	-6	0%	-22%
14	S=c1[nH]nc(-c2cc(-c3ccccc3)n[nH]2)n1/N=C/c1c(Cl)cccc1Cl	0	3%	-30%
15	S=c1[nH]nc(-c2cc(-c3ccccc3)n[nH]2)n1/N=C/C=C/c1ccco1	1	6%	-15%
16	CC(C)(C)c1cc(C(=O)OCCN2CCCCC2)cc(C(C)(C)C)c1	·	·	·
17	Cc1ccc(-c2csc(NC(=O)c3ccc(S(=O)(=O)N4CCc5ccccc54)cc3)n2)cc1	-20	1%	12%
18	CC1CCN(C(=O)CSc2n[nH]c(-c3cc(Br)ccc3O)n2)CC1	·	·	·
19	NC(=O)CC(NC(=O)Cc1ccc(Cl)cc1)c1ccc(N2CCN(c3ccccn3)CC2)c([N+](=O)[O-])c1 (stereo not given)	-10	-1%	4%
20	CCCCCc1c(CC)ncn1CCc1ccccc1OC	·	32µM*	·

nr	12-LOX inh	PTHR1 agonist	ERG-DNA inh
11	?	-86%	6%
12	?	i	11%
13	25µM*	i	-3%
14	?	i	22%
15	40µM*	i	0%
16	7.1µM*	·	·
17	3%	-46%	-12%
18	32µM*	·	·
19	-8%	-36%	20%
20	-9%	-85%	·

Next part; it opens with the 3 that closed the last part.
nr	compound	Giardia killer	PINK1 modulator	miR-21 reporter
18	CC1CCN(C(=O)CSc2n[nH]c(-c3cc(Br)ccc3O)n2)CC1	·	·	·
19	NC(=O)CC(NC(=O)Cc1ccc(Cl)cc1)c1ccc(N2CCN(c3ccccn3)CC2)c([N+](=O)[O-])c1 (stereo not given)	-10	-1%	4%
20	CCCCCc1c(CC)ncn1CCc1ccccc1OC	·	32µM*	·
21	O=C1CCCCCN1Sc1ccccc1	6	-2%	11%
22	COC(=O)c1cc(N2CCN(C)CC2)nc2ccccc12	14	-1%	-3%
23	O=C(NCCNC1CCCCC1)c1ccco1	-12	1%	12%
24	CC1CCC(NCCNC(=O)c2ccco2)CC1 (stereo not given)	-3	2%	1%
25	CC(O)(c1ccccc1)[N+]1(CC(=O)c2ccccc2)C=CC=C1 (stereo not given)	·	2%	·
26	COc1ccc(N/C=C2/Sc3ccccc3NC2=O)cc1	13	4%	-55%
27	Cc1ccc(N/C=C2/Sc3ccccc3NC2=O)cc1	-25	40µM*	-62%
28	Cc1ccc(N(Cc2cccs2)C(=O)Nc2cccc(Cl)c2)cc1	·	3%	-6%
29	COc1ccc(N(Cc2cccs2)C(=O)Nc2cccc(Cl)c2)cc1	·	2%	-5%
30	CCN(CC)CCn1c(=S)[nH]c2cc(C(=O)NCc3ccc(C)cc3)ccc2c1=O	3	-1%	3%

nr	12-LOX inh	PTHR1 agonist	ERG-DNA inh
18	32µM*	·	·
19	-8%	-36%	20%
20	-9%	-85%	·
21	16µM*	i	7%
22	-13%	-1%	-23%
23	?	-54%	14%
24	2.8µM*	-11%	-3%
25	·	·	·
26	-9%	-5%	-1%
27	0%	-19%	18%
28	-18%	i	5%
29	16µM*	-69%	0%
30	?	i	0%

(cont.)
nr	compound	Giardia killer	PINK1 modulator	miR-21 reporter
31	Cc1nn(C)c(C)c1N1C(=O)c2cccc3c(N)ccc(c23)C1=O	-7	1%	-34%
32	Cc1ccc(N2C(=O)c3cccc4c(N)ccc(c34)C2=O)c2cccnc12	32	40µM*	22%
33	CCN1C(=O)c2cccc3c(N)ccc(c23)C1=O	0	-1%	-25%
34	Cc1nn(C)c(C)c1N1C(=O)c2cccc3c(Br)ccc(c23)C1=O	-12	5%	19%
35	Cc1cccc(C)c1-n1nnnc1C1(C)CCC(=O)N1Cc1ccc(F)cc1 (stereo not given)	·	0%	·
36	COc1ccc([N+](=O)[O-])cc1NS(=O)(=O)Cc1ccccc1	4	0%	-4%
37	N#C/C(=C(/O)c1ccc(F)cc1)c1nc2ccccc2s1	-10	16µM*	-29%
38	Cc1cc2c(cc1C)CSC(c1cc(Cl)ccc1O)SC2	·	·	·
39	COc1ccc(-c2cc(C#N)nc(Cl)n2)cc1	-6	1%	27%
40	COc1ccc(-c2cc(C#N)nc(Oc3ccc(Cl)cc3)n2)cc1	-20	13%	5%

nr	12-LOX inh	PTHR1 agonist	ERG-DNA inh
31	-29%	i	35µM*
32	-12%	-22%	-29%
33	0%	0%	12%
34	?	-33%	1%
35	-43%	-28%	·
36	0%	-1%	9%
37	-3%	-22%	0%
38	13µM*	·	·
39	4.5µM*	-15%	-6%
40	-19%	-12%	-4%

Quoted from the listing:
For Giardia killer, entry 39 shows -6
For ERG-DNA inh, entry 36 shows 9%

Next part
nr	compound	Giardia killer	PINK1 modulator	miR-21 reporter
41	CCOC(=O)C1=C(O)c2ccccc2C(=O)/C1=C\c1ccc(C)cc1	-3	10%	26%
42	CCOC(=O)C1=C(C)OC(=Cc2ccccc2)C1=O	·	-1%	·
43	Cc1cc(-c2nc(-c3ccc(S(=O)(=O)N4CCOCC4)cc3)cs2)ccc1F	·	·	·
44	O=C(Nc1ccccc1)c1nnc(CSCC(=O)N2CCN(c3ccccc3)CC2)s1	·	·	·
45	COc1cc(NC(=S)Nc2cccnc2)cc(OC)c1OC	0	-1%[38.3 µM]	3%
46	COc1cc(NC(=S)NCc2cccnc2)cc(OC)c1OC	14	-1%	2%
47	COc1ccc(NC(=S)Nc2ncccc2C)cc1OC	-22	2%	-70%
48	Cc1cccnc1NC(=S)Nc1ncccc1C	-22	1%	-47%
49	Cc1cccnc1NC(=S)Nc1ccc(Cl)c(Cl)c1	-2	4%	-55%

nr	12-LOX inh	PTHR1 agonist	ERG-DNA inh
41	10µM*	-40%	20%
42	-24%	-31%	·
43	-29%	·	·
44	1%	·	·
45	45µM*	i	·
46	-1%	-13%	-7%
47	5µM*	-9%	2%
48	-12%	i	-2%
49	8.9µM*	i	11%
